Chains of the proteins cited; added tags and fusions are not shown.
UniProt Q8R4D5, whole entry Y745H: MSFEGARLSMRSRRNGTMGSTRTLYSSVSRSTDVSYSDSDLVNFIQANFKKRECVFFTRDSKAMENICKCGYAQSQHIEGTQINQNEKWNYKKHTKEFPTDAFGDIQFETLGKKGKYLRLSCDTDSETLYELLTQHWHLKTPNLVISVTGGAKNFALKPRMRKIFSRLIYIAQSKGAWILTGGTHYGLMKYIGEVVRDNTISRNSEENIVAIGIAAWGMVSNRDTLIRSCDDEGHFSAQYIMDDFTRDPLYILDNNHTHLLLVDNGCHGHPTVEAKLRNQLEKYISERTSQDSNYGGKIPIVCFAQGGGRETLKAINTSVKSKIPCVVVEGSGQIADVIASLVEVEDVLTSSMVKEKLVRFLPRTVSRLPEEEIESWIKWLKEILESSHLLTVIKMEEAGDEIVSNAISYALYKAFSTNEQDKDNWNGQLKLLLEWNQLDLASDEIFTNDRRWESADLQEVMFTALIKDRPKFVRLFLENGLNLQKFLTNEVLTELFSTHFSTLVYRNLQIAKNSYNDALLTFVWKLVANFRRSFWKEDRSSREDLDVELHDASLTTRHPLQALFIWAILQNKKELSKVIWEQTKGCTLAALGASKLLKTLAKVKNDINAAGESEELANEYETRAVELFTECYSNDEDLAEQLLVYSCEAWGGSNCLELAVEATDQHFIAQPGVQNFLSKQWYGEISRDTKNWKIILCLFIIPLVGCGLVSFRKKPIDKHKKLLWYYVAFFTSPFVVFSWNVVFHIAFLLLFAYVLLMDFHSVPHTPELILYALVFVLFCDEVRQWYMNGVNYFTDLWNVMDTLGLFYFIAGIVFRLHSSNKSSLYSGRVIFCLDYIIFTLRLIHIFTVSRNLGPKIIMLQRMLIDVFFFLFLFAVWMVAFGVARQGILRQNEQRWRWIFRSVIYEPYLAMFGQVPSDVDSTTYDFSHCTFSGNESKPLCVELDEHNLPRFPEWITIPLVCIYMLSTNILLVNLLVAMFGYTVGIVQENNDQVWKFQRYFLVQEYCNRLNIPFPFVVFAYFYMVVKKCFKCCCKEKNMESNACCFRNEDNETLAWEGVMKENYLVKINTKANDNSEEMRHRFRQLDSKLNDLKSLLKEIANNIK

In article PMC2778643, “Differential role of the menthol-binding residue Y745 in the antagonism of thermally gated TRPM8 channels” (Molecular Pain, 2009):

Target: T1, TRPM8-Y745H mutant channel (Mus musculus, UniProt Q8R4D5, Y745H)
T1 construct: The full length cDNA encoding mouse TRPM8 (NM_134252) in pcDNA5; expressed in transfected cells; host or cells: HEK293
Test: Calcium imaging (Fura-2) of HEK293 cells expressing TRPM8-Y745H
Assay type: cell-based
Description: The full length cDNA encoding mouse TRPM8 (NM_134252) in pcDNA5 (Invitrogen) was kindly provided by Dr. Ardem Patapoutian, (Scripps Research Institute, La Jolla, CA). The TRPM8-Y745H mutant was obtained by site-directed mutagenesis with the following primers: (for) 5'-[…]-3'; (rev) 5'-[…]-3', and Pfu Turbo Taq DNA Polymerase (Roche).
HEK293 cells were cultured in DMEM containing 10% of foetal bovine serum and antibiotics, and plated in 2 cm^2 wells at 400.000-500.000 cells/well. 20-24 h after plating, the cells were co-transfected with eGFP (0.3 μg/well) and TRPM8-wt or TRPM8-Y745H (2 μg/well) by incubating them with a solution containing the plasmid DNA and Lipofectamine 2000 (Invitrogen) for 5 hours. Subsequently, the cells were trypsinized and replated on poly-L-lysine-coated round coverslips (6 mm diameter). […]
Prior to experiment, HEK293 cells transfected with the TRPM8-wt/Y745H constructs were incubated with 5 μM Fura-2AM dissolved in the bath solution and 0.02% Pluronic (both from Invitrogen) for 40 min at 37°C in darkness. Fluorescence measurements were made with a Leica DM IRE2 inverted microscope fitted with a CCD camera (Imago QE Sensicam, TillPhotonics, Graefelfing, Germany). Fura-2 was excited at 340 nm and 380 nm with a Polychrome IV monochromator (Till Photonics) and the emitted fluorescence was filtered with a 510 nm longpass filter. […]

In the case of `Clc1ccc(COC(Cn2ccnc2)c2ccc(Cl)cc2Cl)cc1` (stereo not shown) [Econazole, 1-[2-[(4-chlorophenyl)methoxy]-2-(2,4-dichlorophenyl)ethyl]-1H-imidazole], the “Inhibitory potency at cooling-activated TRPM8-Y745H compared with wild-type (dose-inhibition curves)” value was “significantly reduced”.
